Assay results reported in paper PMC8540265, “Activity of New Synthetic (2-Chloroethylthio)-1,4-naphthoquinones in Prostate Cancer Cells” (Pharmaceuticals, 2021).

Assays:
22Rv1 cells [1] = experiment: Annexin-V-FITC/PI double staining and flow cytometry, 22Rv1 cells; type: cell-based, human; conditions: 22Rv1, zVAD 1 h pre-treatment, 48 h
MRC-9 cells = experiment: Annexin-V-FITC/PI double staining and flow cytometry, MRC-9 cells; conditions: 48 h
Description: The experiment was performed as previously reported with slight modifications. In brief, 0.2 × 10^6 cells/well were seeded in 6-well plates and incubated overnight. The medium was exchanged with a fresh culture medium (1 mL/well) and the cells were pre-treated with z-VAD(OMe)-fmk for 1 h, followed by treatment with the investigated drugs for 48 h. The cells were then harvested by trypsinization as described for the DNA fragmentation and cell cycle analysis (see Section 3.2.5), double-stained using annexin-V-FITC and PI, and analyzed using the flow cytometry technique with either FACS Canto or FACS Calibur machines (BD Bioscience, San Jose, CA, USA) and BD Bioscience Cell Quest Pro v.5.2.1 software (BD Bioscience).

[2] = system: 22Rv1, PC-3, and LNCaP cells; experiment: DNA fragmentation and cell cycle analysis (PI staining, flow cytometry)
Description: The experiment was performed as previously reported. In brief, 0.2 × 10^6 cells/well were seeded in 12-well plates at 1 mL/well, incubated overnight, and treated with the tested compounds in fresh culture media (1 mL/well) for 48 h. Then, the cells were harvested using trypsinization, fixed with 70% EtOH overnight, stained with propidium iodide (PI), and analyzed using the flow cytometry technique. For the analysis, the FACS Calibur (BD Bioscience, San Jose, CA, USA) instrument and BD Bioscience Cell Quest Pro v.5.2.1 software (BD Bioscience) were used.

caspase-3 and PARP = experiment: Western blotting, cleavage of caspase-3 and PARP; conditions: treated cells, 48 h
Description: (§1) Western blotting was performed as previously reported. The cells were seeded in ø 6 cm Petri dishes (1 × 10^6 cells/dish in 5 mL/dish of culture media), incubated overnight, and treated with drugs at 5 mL/dish of a fresh culture medium for either 2 h or 48 h. The cells were harvested and lysed in lysis buffer. Then, the protein concentration was determined by the Bradford assay, and 20 μg total protein of each sample was loaded on the gradient polyacrylamide ready-made gel (Bio-Rad, Hercules, CA, USA). The proteins were separated, transferred onto a PVDF membrane, and detected using the corresponding primary and secondary antibodies.

Bcl-2 = experiment: Western blotting, Bcl-2 in 22Rv1 cells; conditions: 22Rv1, 48 h
Description: as §1

Bax = experiment: Western blotting, Bax in 22Rv1 cells; conditions: 22Rv1, 48 h
Description: as §1

22Rv1 cells [3] = experiment: Evaluation of intracellular ROS (CM-H2DCFDA, flow cytometry); conditions: 22Rv1, 2 h, very low nanomolar concentrations
Description: The levels of intracellular ROS were evaluated using the reactive oxygen species-sensitive CM-H2DCFDA reagent and the flow cytometry technique. 22Rv1 cells were plated in 12-well plates and consequently incubated with CM-H2DCFDA solution in PBS, and then treated with the drug solution in PBS for the indicated time. Next, the cells were harvested and immediately analyzed according to the manufacturer’s protocols as previously described.

22Rv1 cells [4] = experiment: Drug combinational studies (MTT, Chou–Talalay method); conditions: CI: >1.2 antagonism, 0.85~1.2 additive, <0.85 synergism
Description: A total of 6000 cells/well were seeded in 96-well plates, incubated overnight, and treated with the drugs in 100 μL/well of the corresponding fresh culture media for 48 h, as previously described. For combinational assays, the cells were pre-treated with the corresponding inhibitor for the indicated time and then co-treated with the tested compounds for 48 h. Then, 10 μL/well of MTT ((3-(4,5-dimethylthiazol-2-yl)-2,5-diphenyltetrazolium bromide) solution was added and the cell viability was measured as previously reported.
The synergistic or antagonistic effects of the investigated drugs in combination with approved chemotherapeutic drugs or specific inhibitors were performed using the Chou–Talalay method and as previously described. Cells were pre-treated with the corresponding inhibitor prior to the drug application or co-treated with the drugs and inhibitor for the indicated time at a constant molar ratio. The molar ratios of the individual drugs used for combinational studies are shown in Supplementary Information (Table S2). The in vitro cytotoxic activity of the individual compounds and their combinations was evaluated using the MTT assay. The generated data were analyzed with CompuSyn v.1.0 (ComboSyn Inc., Paramus, NJ, USA) software and a combinational index (CI) was calculated. CI > 1.2 was assumed as antagonism; CI = 0.85~1.2 corresponds to the additive effect; CI < 0.85 refers to synergism. The analysis was performed according to previously published recommendations.

[5] = system: JNK1/2, p38, ERK1/2, MEK1/2, AKT; experiment: Western blotting, kinase activation in 22Rv1 cells; conditions: 22Rv1, 2 h treatment
Description: as §1

PSA = experiment: Western blotting, PSA in 22Rv1 cells; conditions: 22Rv1, 48 h
Description: as §1

AR-FL = experiment: Western blotting, AR-FL in 22Rv1 cells; conditions: 22Rv1, 48 h
Description: as §1

AR-V7 = experiment: Western blotting, AR-V7 in 22Rv1 cells; conditions: 22Rv1, 48 h
Description: as §1

22Rv1 cells [6] = experiment: Mitochondrial membrane potential analysis (JC-1 staining, flow cytometry); conditions: 22Rv1, 2 h

Cc1c(C)c(O)c2c(c1O)C(=O)C=C(SCCCl)C2=O
effect of pre-treatment with pan-caspase inhibitor zVAD on induced apoptosis (22Rv1 cells [1]): significantly (however, not completely) inhibit
pro-apoptotic effects in non-cancer MRC-9 cells compared with cancer cells (MRC-9 cells): less pronounced
DNA fragmentation (sub-G1 population) ([2]; 22Rv1, PC-3, LNCaP, 48 h): dramatic dose-dependent DNA fragmentation
effects on cell cycle progression ([2]; either cell line, data not shown): no significant effects
cleavage of caspase-3 and PARP (caspase-3 and PARP): cleavage of caspase-3 and PARP
Bcl-2 expression (Bcl-2): down-regulation
Bax expression level (Bax): no significant changes
ROS level (22Rv1 cells [3]): up-regulation of ROS
effect in combination with AKTi (GSK-690693) (22Rv1 cells [4]; 22Rv1, 48 h, MTT): very strong synergism
effect in combination with ERKi (SCH772984) (22Rv1 cells [4]; 22Rv1, 48 h, MTT): pronounced synergistic effects
effect in combination with JNKi (SP600125) (22Rv1 cells [4]; 22Rv1, 48 h, MTT): additive to synergistic effects
effect in combination with MEKi (PD98059) (22Rv1 cells [4]; 22Rv1, 48 h, MTT): pronounced synergistic effects
effect in combination with carboplatin (22Rv1 cells [4]; 22Rv1, 48 h, MTT): additive to antagonistic effect
effect in combination with cisplatin (22Rv1 cells [4]; 22Rv1, 48 h, MTT): additive to antagonistic effect
effect in combination with docetaxel (22Rv1 cells [4]; 22Rv1, 48 h, MTT): rather antagonistic effect
effect in combination with enzalutamide (22Rv1 cells [4]; 22Rv1, 48 h, MTT): clear additive effect
effect in combination with p38i (SB203580) (22Rv1 cells [4]; 22Rv1, 48 h, MTT): additive to synergistic effects
effect in combination with olaparib (22Rv1 cells [4]; 22Rv1, MTT): promising synergistic effects
effect on kinases JNK1/2, p38, ERK1/2, MEK1/2 and AKT [5]: activation
expression of PSA (PSA): down-regulation
expression of AR-FL (AR-FL): down-regulation
AR-V7 expression (AR-V7): dose-dependent down-regulation
effect on mitochondrial membrane potential (ΔΨm) (22Rv1 cells [6]): provoked mitochondrial membrane depolarization
